This assay concerns the target 5-hydroxytryptamine receptor 1A (Rattus norvegicus, UniProt P19327). The assay is described as follows: Tested in vitro for binding affinity by measuring its ability to inhibit [3H]8-OH-DPAT binding at 5-hydroxytryptamine 1A receptor in rat cerebral cortex membranes. The assay is classed as cell membranes. The procedure, abridged:
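Rat cortex homogenized in ice-cold 50 mM Tris-HCl (pH 7.7), spun at 28000g, washed twice, preincubated 37 °C 10 min, resuspended in Tris/5 mM MgSO4/0.5 mM EDTA (pH 7.4). About 1 mg protein incubated 15 min at 37 °C with 0.6 nM [3H]-8-OH-DPAT and competitor, in buffer with 10 nM clonidine and 30 nM prazosin. Nonspecific binding: 10 μM 5-HT. Prescreen at 10^-6 M; curves run if displacement ≥55%.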

Amino acid sequences for entries named in this document (tags omitted).
UniProt P19327, whole entry: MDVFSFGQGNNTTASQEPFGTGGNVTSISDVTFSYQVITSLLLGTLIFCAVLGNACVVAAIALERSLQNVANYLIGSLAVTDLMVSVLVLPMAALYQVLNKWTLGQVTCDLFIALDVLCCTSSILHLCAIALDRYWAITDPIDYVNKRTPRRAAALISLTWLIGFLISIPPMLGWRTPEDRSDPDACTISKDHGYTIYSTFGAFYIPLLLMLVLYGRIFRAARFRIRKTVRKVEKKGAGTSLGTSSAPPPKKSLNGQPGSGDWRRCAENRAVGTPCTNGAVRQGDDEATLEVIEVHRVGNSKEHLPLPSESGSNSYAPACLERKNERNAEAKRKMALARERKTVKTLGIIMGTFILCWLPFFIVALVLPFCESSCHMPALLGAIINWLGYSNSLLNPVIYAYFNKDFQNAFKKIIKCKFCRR

Broadly, the pKi is the Ki on a negative log10 scale, so that one unit is a factor of ten. A low value points to a high Ki.

pKi: −log10 of the molar value.

In the case of `O=C1C2CCCCN2C(=O)N1CCCCN1CCN(c2ccc([N+](=O)[O-])cc2)CC1` (stereo unspecified), the pKi was 5.59.

Source of the values: ChEMBL document CHEMBL1130040, “Synthesis and structure-activity relationships of a new model of arylpiperazines. 2. Three-dimensional quantitative structure-activity relationships of hydantoin-phenylpiperazine derivatives with affinity for 5-HT1A and alpha 1 receptors. A comparison of CoMFA models” (J Med Chem, 1997).
